From ChEMBL document CHEMBL1123259, “Probes for narcotic receptor mediated phenomena. 13. Potential irreversible narcotic antagonist-based ligands derived from 6,14-endo-ethenotetrahydronororipavine with 7-(methoxyfumaroyl)amino, (bromoacetyl)amino, or isothiocyanate electrophiles: chemistry, biochemistry, and pharmacology” (1986)
Activity calls are given as the source filed them. The calls are words filed in the database; no cut-off is given here.

Columns and labels:
Mus musculus [1] = assay: In vivo antagonist/agonist nature after subcutaneous administration at 2 mg/Kg to mice using hot plate assay; Inactive
Mus musculus [2] = assay: In vivo antagonist/agonist nature after subcutaneous administration at 20 mg/Kg to mice using hot plate assay; Inactive

SMILES	ED50 (Mus musculus [1])	ED50 (Mus musculus [2])
C=CCN1CC[C@]23c4c5ccc(O)c4O[C@H]2C2(OC)C=C[C@@]3(C[C@@H]2NC(=O)/C=C/C(=O)OC)[C@H]1C5	inactive	inactive
CO[C@]12C=C[C@@]3(C[C@@H]1NC(=O)CBr)[C@H]1Cc4ccc(O)c5c4[C@@]3(CCN1CC1CC1)[C@H]2O5	inactive	inactive
C=CCN1CC[C@]23c4c5ccc(O)c4O[C@H]2C2(OC)C=C[C@@]3(C[C@@H]2NC(=O)CBr)[C@H]1C5	inactive	inactive
COC12C=C[C@@]3(C[C@@H]1N=S)[C@H]1Cc4ccc(O)c5c4[C@@]3(CCN1CC1CC1)[C@H]2O5	inactive	inactive
C=CCN1CC[C@]23c4c5ccc(O)c4O[C@H]2C2(OC)C=C[C@@]3(C[C@@H]2N=S)[C@H]1C5	inactive	inactive
CO[C@]12C=C[C@@]3(C[C@@H]1N)[C@H]1Cc4ccc(O)c5c4[C@@]3(CCN1CC1CC1)[C@H]2O5	inactive	inactive
COC(=O)/C=C/C(=O)N[C@H]1C[C@@]23C=CC1(OC)[C@@H]1Oc4c(O)ccc5c4[C@@]12CCN(CC1CC1)[C@@H]3C5	inactive	inactive
